In paper PMC4669130:

Assays:
HL60 cells = experiment: MTT cytotoxicity assay; settings: HL60, inhibitor at 50 μM
HL60/adr (ABCC1) cells = experiment: MTT cytotoxicity assay; settings: inhibitor at 50 μM
KB cells = experiment: MTT cytotoxicity assay; settings: read-out: IC50 ± SD, anti-carcinogen alone
KBv200 (ABCB1) cells = experiment: MTT cytotoxicity assay; settings: read-out: IC50 ± SD; KBv200, anti-carcinogen alone
MCF-7/adr (ABCB1) cells = experiment: MTT cytotoxicity assay; settings: read-out: IC50 ± SD, anti-carcinogen alone
[1] = Liver histology (HE staining); settings: mice, paclitaxel 18 mg/kg alone, 3 consecutive days
[2] = Serum ALT and AST after 3 consecutive days of treatment; settings: mice, paclitaxel i.v. 18 mg/kg alone
S1 cells = experiment: MTT cytotoxicity assay
S1-M1-80 (ABCG2) cells = experiment: MTT cytotoxicity assay

Molecule: CN(C)C(=O)CCSC(SCCC(=O)O)c1cccc(/C=C/c2ccc3ccc(Cl)cc3n2)c1 (centres unmarked)
- fold-enhancement of Doxorubicin cytotoxicity (HL60 cells): 1.02 fold
- fold-enhancement of Doxorubicin cytotoxicity (HL60/adr (ABCC1) cells): 4.46 fold

Molecule: cisplatin
- pIC50 (KB cells): 6.48
- pIC50 (KBv200 (ABCB1) cells): 5.63
- pIC50 (MCF-7/adr (ABCB1) cells): 4.95

Molecule: CC(=O)O[C@H]1C(=O)[C@@]2(C)[C@H]([C@H](OC(=O)c3ccccc3)[C@]3(O)C[C@H](OC(=O)[C@H](O)[C@@H](NC(=O)c4ccccc4)c4ccccc4)C(C)=C1C3(C)C)[C@]1(OC(C)=O)CO[C@@H]1C[C@@H]2O
- histological change of liver [1]: mild congestion was observed in the central veins
- AST [2]: 87.8±10.46(0.884) U/L

Molecule: fumitremorgin C
- fold-enhancement of Topotecan cytotoxicity (S1 cells; S1, inhibitor at 0.5 μM): 1.03 fold
- fold-enhancement of Topotecan cytotoxicity (S1-M1-80 (ABCG2) cells; S1-M1-80, inhibitor at 0.5 μM): 12.3 fold

Molecule: COc1cccc2c1C(=O)c1c(O)c3c(c(O)c1C2=O)C[C@@](O)(C(=O)CO)C[C@@H]3O[C@H]1C[C@H](N)[C@H](O)[C@H](C)O1
- pIC50 (KB cells): 6.21

Molecule: CC[C@@]1(O)C(=O)OCc2c1cc1n(c2=O)Cc2cc3c(CN(C)C)c(O)ccc3nc2-1
- fold-enhancement (S1 cells; S1, anti-carcinogen alone (absence of inhibitor, reference)): 1.00 fold
- pIC50 (S1 cells; read-out: IC50 ± SD, S1, anti-carcinogen alone): 6.07
- fold-enhancement (S1-M1-80 (ABCG2) cells; S1-M1-80, anti-carcinogen alone (absence of inhibitor, reference)): 1.00 fold
- pIC50 (S1-M1-80 (ABCG2) cells; read-out: IC50 ± SD, S1-M1-80, anti-carcinogen alone): 5.02

pIC50: −log10 of the molar value.
